According to patent US11457625B1, “Tuning a broad acting antimicrobial textile to act as a narrow spectrum antimicrobial textile” (priority 2018, dated 2022):

Tested on: Staphylococcus aureus 27217 or Staphylococcus aureus 25923
Assay: Determining kill vs binding (viability of bound cells in mannitol salts broth)
Format: cell-based
Conditions: NyCo swatch, 2.5 mg/ml peptide, no PHMB; 24 hr

## GGSGGSYSTCDFIM (STAPHYLOCOCCUS AUREUS) [Peptide]
  growth in mannitol salts broth (viability of bound cells): growth
